# Experimental data as given in patent publication US9133128B2, “Pyrazole derivatives as cannabinoid receptor 1 antagonists” (Research Triangle Institute, priority 2011, dated 2015).
# Protein sequences, listed by entry. Tags and fused reporters are not part of them.
# UniProt P21554, whole entry: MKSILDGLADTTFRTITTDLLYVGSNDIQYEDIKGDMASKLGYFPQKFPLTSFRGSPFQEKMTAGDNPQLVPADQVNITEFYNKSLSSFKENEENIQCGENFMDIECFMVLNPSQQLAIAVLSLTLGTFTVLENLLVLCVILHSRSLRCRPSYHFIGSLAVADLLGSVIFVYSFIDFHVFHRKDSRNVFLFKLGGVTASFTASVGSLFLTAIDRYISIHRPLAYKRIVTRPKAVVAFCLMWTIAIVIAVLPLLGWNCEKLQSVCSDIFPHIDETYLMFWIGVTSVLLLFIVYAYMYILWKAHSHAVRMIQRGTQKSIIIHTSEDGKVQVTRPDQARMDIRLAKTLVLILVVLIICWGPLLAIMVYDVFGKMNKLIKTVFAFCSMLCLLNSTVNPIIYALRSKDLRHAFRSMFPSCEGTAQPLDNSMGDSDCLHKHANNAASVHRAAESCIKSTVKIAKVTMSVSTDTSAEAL
# Key:
# CB1 [1] = target: T1, CB1 (Homo sapiens, UniProt P21554); experiment: CB1 activated Gαq16-coupled intracellular calcium mobilization assay in CHO-K1 cells (apparent affinity Ke); format: cell-based; conditions: Table 2
# T1 construct: expressed in transfected cells; host or cells: CHO-K1 (membranes)
# CB1 [2] = target: T1, CB1; experiment: Radioligand displacement of [3H]SR141716 at CB1; format: binding; conditions: Table 3; radioligand [3H]SR141716
# CB1 [3] = target: T1, CB1; experiment: Displacement of [3H]CP55940 in membranes of CHO-K1 cells over-expressing CB1; format: binding; conditions: Table 3; radioligand [3H]CP55940
Structure (SMILES),Kb (CB1 [1]) [nM],Ki (CB1 [2]) [µM],Ki (CB1 [3]) [µM]
"Cc1c(C(=O)NCC2CCC(CNS(N)(=O)=O)CC2)nn(-c2ccc(Cl)cc2Cl)c1-c1ccc(Cl)cc1 (mixture of isomers) [drawing 38, 5-(4-chlorophenyl)-1-(2,4-dichlorophenyl)-4-methyl-N-({4-[(sulfamoylamino)methyl]cyclohexyl}methyl)-1H-pyrazole-3-carboxamide]",106,,
"Cc1c(C(=O)NCC2CCC(CNS(C)(=O)=O)CC2)nn(-c2ccc(Cl)cc2Cl)c1-c1ccc(Cl)cc1 (mixture of isomers) [drawing 37, 5-(4-chlorophenyl)-1-(2,4-dichlorophenyl)-N-{[4-(methanesulfonamidomethyl)cyclohexyl]methyl}-4-methyl-1H-pyrazole-3-carboxamide]",113,,
"Cc1c(C(=O)NCCCCCCCNS(C)(=O)=O)nn(-c2ccc(Cl)cc2Cl)c1-c1ccc(Cl)cc1 [5-(4-chlorophenyl)-1-(2,4-dichlorophenyl)-N-(7-methanesulfonamidoheptyl)-4-methyl-1H-pyrazole-3-carboxamide]",207,,
Cc1c(C(=O)NCC2CCC(CNS(N)(=O)=O)CC2)nn(-c2ccc(Cl)cc2Cl)c1-c1ccc(Cl)cc1 (mixture of isomers) [drawing 56],,0.015,0.107
